## scFv variants of Ab-14 (heavy chain) against a SARS-CoV-2 spike peptide

All variants were tested on one target, the spike HR2 peptide PDVDLGDISGINAS (SARS-CoV-2).

Parent scFv Ab-14: VH joined to VL by the linker GGGGSGGGGSGGGGS. Changes lie in the heavy chain CDRs alone.
VH: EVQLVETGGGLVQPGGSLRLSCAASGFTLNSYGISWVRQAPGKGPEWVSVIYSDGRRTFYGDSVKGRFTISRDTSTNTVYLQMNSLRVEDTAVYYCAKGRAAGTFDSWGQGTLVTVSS
VL: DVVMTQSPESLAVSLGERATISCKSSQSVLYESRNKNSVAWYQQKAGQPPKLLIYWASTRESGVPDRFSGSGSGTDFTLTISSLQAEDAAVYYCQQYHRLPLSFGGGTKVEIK

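The variants were designed computationally from a first round of random CDR variants and then made and measured. Their group label is 14H_En_Gen (En: ensemble of fine-tuned language models; Gen: genetic algorithm). The assay is AlphaSeq: two haploid yeast populations carry antibody and antigen on their surface. Binding brings cells together so that they mate, and sequencing counts the barcode pairs among the diploids. A regression on co-assayed BCL2-family reference pairs converts the normalised counts of each replicate to an apparent Kd. The assay was run in six technical replicates.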

Each variant is given by its three heavy chain CDRs, as the data file delimits them; those of the parent are GFTLNSYGIS, VIYSDGRRTFYGDSVK, GRAAGTFDS.
Scale: log10 of Kd in nM, estimated from mating counts; low values are strong binders.
"ND" marks a missing value. The strain was present, yet no cells mated with the target were sequenced in that replicate, which points to weak or no binding.

| CDR-H1 | CDR-H2 | CDR-H3 | replicates, log10 nM | signal with controls |
|---|---|---|---|---|
| GFDLDEYGIS | VIYADGQRTYYADSVK | GNVAGTFDT | -0.47 -0.39 -0.37 -0.52 -0.42 -0.16 | 0 of 18 |
| GFDLNEYGIS | VIYADGVRTAYADSVK | GEVAGTFDV | -0.32 -0.16 -0.24 -0.60 -0.44 -0.13 | 0 of 18 |
| GFDLNEYGIS | VIYADGQRKAYADSVK | GTNAGTFDV | -0.53 -0.16 -0.45 -0.55 -0.14 -0.38 | 0 of 18 |
| GFDLNEYGIS | VIYADGQRTYYADSVK | GEVAGTFDQ | -0.48 -0.35 -0.36 -0.78 -0.32 -0.27 | 1 of 18 (1.60) |
| GFDLDEYGIS | VIYADGLRTAYTDSVK | GENAGTFDV | 1.48 1.92 0.99 0.69 ND 0.94 | 0 of 18 |
| GFDLNEYGIS | VIYADGMRTVYADSVK | GENAGTFDV | -0.51 -0.88 -0.79 -1.28 -1.12 -0.72 | 0 of 18 |
| GFDLNEYGIS | VIYADGIRTAYADSVK | GEVAGTFDV | -0.99 -0.71 -1.01 -0.61 -0.70 -0.63 | 0 of 18 |
| GFDLDEYGIS | VIYADGMRTFYADSVK | GNNAGTFDL | 0.32 0.01 -0.09 -0.13 0.18 0.13 | 0 of 18 |
| GFDLNEYGIS | VIYADGVRTAYSDNVK | GEVAGTFDL | -0.09 -0.18 -0.10 -0.48 -0.03 0.06 | 0 of 18 |
| GFDLNEYGIS | VIYADGSRTFYADSVK | GENAGTFDV | -0.24 -1.15 -0.36 -0.51 -0.58 -0.29 | 0 of 18 |
| GFDLDEYGIS | VIYADGMRTAYADSVK | GNVAGTFVL | 1.03 1.10 0.47 0.58 0.70 0.80 | 1 of 18 (2.60) |
| GFDLDEYGIS | VIYADGRRTAYADSVK | GQVAGTFDL | -0.44 -0.15 -0.58 -0.40 -0.98 -0.26 | 0 of 18 |
| GFDLDEYGIS | VIYADGMRTAYADSVK | GNNAGTFDM | -0.53 -0.80 -0.70 -0.44 -0.41 -0.53 | 0 of 18 |
| GFDLNEYGIS | VIYADGMRTFYADSVK | GSNAGTFDM | -0.23 -0.33 -0.90 -0.90 -0.64 -0.64 | 1 of 18 (1.52) |
| GFDLEDYGIS | VIYADGRRTAYADSVK | GNVAGTFDL | -0.36 -0.01 -0.54 -0.43 -0.14 0.15 | 0 of 18 |
| GFDLEDYGIS | VIYADGMRTAYSDSVK | GEVAGTFDQ | -0.02 -0.02 -0.73 0.30 -0.35 0.71 | 0 of 18 |
| GFDLNEYGIS | VIYADGMRTSYADSVK | GENAGTFDQ | -0.27 -0.72 -0.94 -1.60 -1.16 -1.05 | 1 of 18 (0.89) |
| GFDLNEYGIS | VIYADGMRTAYADSVK | GNVAGTFDS | -0.25 -0.59 -0.72 -0.63 -0.92 -0.71 | 1 of 18 (1.48) |
| GFDLDEYGIS | VIYADGKRTAYADNVK | GQVAGTFDV | -0.57 -0.57 -0.86 -0.72 -0.76 -0.47 | 0 of 18 |
| GFDLDEYGIS | VIYADGQRTAYSDSVK | GNVAGTFDL | -0.58 -0.37 -0.37 -0.64 -1.01 -0.52 | 0 of 18 |
| GFDLNEYGIS | VIYADGRRTAYADNVK | GETAGTFDV | 0.07 0.45 1.03 0.32 -0.18 -0.10 | 1 of 18 (1.68) |
| GFDLDEYGIS | VIYADGMRTAYTDSVK | GNVAGTFDV | -0.01 -0.14 0.21 0.03 -0.39 -0.12 | 0 of 18 |
| GFDLNEYGIS | VIYADGMRTAYTDSVK | GSNAGTFDV | -0.44 -0.55 -0.42 -0.52 -0.86 -0.61 | 0 of 18 |
| GFDLNEYGIS | VIYADGVRTFYADSVK | GTNAGTFDV | -0.54 -0.72 -0.89 -0.72 -0.78 -0.91 | 0 of 18 |
| GFDLNEYGIS | VIYADGKRTYYADDVK | GNNAGTFDV | ND ND ND ND ND ND | 0 of 18 |
| GFDLNEYGIS | VIYADGQRTVYADSVK | GNVAGTFDI | -0.36 -0.33 -0.75 -0.83 -0.71 -0.47 | 1 of 18 (2.81) |
| GFDLDEYGIS | VIYADGVRTAYSDSVK | GNTAGTFDL | -0.42 0.14 -0.54 -0.83 -0.53 0.12 | 0 of 18 |
| GFDLNEYGIS | VIYADGMRTAYSDDVK | GNNAGTFDV | -0.70 -0.60 -0.47 -1.02 -0.75 -0.39 | 1 of 18 (1.29) |
| GFDLNEYGIS | VIYADGVRTSYADSVK | GNTAGTFDV | 0.01 -0.26 -0.60 -0.72 -0.50 -0.15 | 0 of 18 |
| GFDLNEYGIS | VIYADGVRTAYADDVK | GTNAGTFDV | ND 0.12 -1.26 -1.84 -1.11 ND | 0 of 18 |
| GFDLNEYGIS | VIYADGMRTAYSDSVK | GNVAGTFDL | -0.17 -0.20 -0.47 0.11 -0.73 0.00 | 0 of 18 |
| GFDLNEYGIS | VIYADGMRTAYADSVK | GNTAGTFDL | -0.03 -0.39 -0.62 -0.62 -0.78 -0.53 | 0 of 18 |
| GFDLNEYGIS | VIYADGKRTAYADDVK | GEVAGTFDM | 0.56 0.33 0.31 0.43 1.19 0.72 | 1 of 18 (1.61) |
| GFDLNEYGIS | VIYADGLRTAYSDSVK | GNNAGTFDV | -0.54 -0.75 -0.46 -0.53 -0.49 -0.65 | 0 of 18 |
| GFDLNEYGIS | VIYADGRRTAYSDSVK | GENAGTFDT | 0.71 0.23 0.72 0.91 1.09 1.06 | 0 of 18 |
| GFDLNEYGIS | VIYADGQRTAYVDSVK | GNVAGTFDI | -0.66 -0.80 -0.86 -0.87 -0.81 -0.68 | 1 of 18 (2.28) |
| GFDLNEYGIS | VIYADGVRTAYADDVK | GQNAGTFDL | ND 1.41 1.68 0.94 1.64 1.47 | 0 of 18 |

Empty control strains, which show no peptide, gave a signal in 1% of pairings with all heavy chain designs; the median was 2.08 and 95% of these signals were weaker than 0.84. No background was subtracted. Also given: how often the same scFv was detected with the empty control strains, with their mean in brackets.
A sequence measured in both rounds can read differently, since the two assays cover different ranges.
The authors' rule: three or more of the six replicates give a measured affinity, fewer mean a poor binder.
Of ten entries with the parent sequence, four were seen in most replicates (averages 0.34 to 2.37), three in one and three in none, so single entries are noisy.

Reference: Li et al. 2023, doi:10.1038/s41467-023-39022-2. File: FLAb, binding data.